{"source": "patent US20250339549A1", "about": "“METHODS FOR THE DETECTION AND TREATMENT OF NON-SMALL-CELL LUNG CANCER” (Board of Regents, The University of Texas System, priority 2022, published 2025)", "key": {"[1]": {"system": "HCC827 and PC9 cells", "experiment": "Flow cytometry-based cell cycle analysis", "parameters": "species or system human", "settings": "30 nM"}, "[2]": {"system": "ALPP", "experiment": "ALPP expression in cancer cell lines after drug treatment (immunoblot, immunofluorescence, flow cytometry, qPCR, surface proteomics)", "format": "cell-based, human", "settings": "EGFR TKI treatment (FIG. 7D, FIG. 15B: 30 nM, 48 hours)", "description": "ALPP and ALPPL2 expression analysis in whole cell extracts and in the surfaceome compartment was done by mass spectrometry as previously described^19-23. Each dataset was normalized to the total number of spectral counts for each compartment^24.\nImages were acquired in z-series on a spinning-disk confocal system.\nProbe for ALPP was purchased from Thermo Fisher Scientific (Hs03046558_s1)."}, "[3]": {"system": "HCC827 and PC9 cells", "settings": "100 nM"}}}
{"smiles": "COc1cc2ncnc(Nc3ccc(F)c(Cl)c3)c2cc1OCCCN1CCOCC1", "note": "[gefitinib]", "values": [{"measurement": "cell cycle arrest in G0/G1", "setting": "[1]", "value": "statistically significantly increased cell cycle arrest in G0/G1"}, {"measurement": "fold increase in ALPP expression", "setting": "[2]; HCC827 cells", "value": "~60", "unit": "fold"}, {"measurement": "fold increase in ALPP expression", "setting": "[2]; PC9 cells", "value": "~110", "unit": "fold"}, {"measurement": "emergence of drug-resistant clones under continuous TKI treatment", "setting": "[3]", "value": "led to the emergence of drug-resistant clones"}]}
